## Ab-14 light chain CDR variants: yeast mating affinities

Antigen: PDVDLGDISGINAS, a 14-residue peptide of the SARS-CoV-2 spike HR2 region.

Parent: Ab-14, a human scFv built as VH, the linker GGGGSGGGGSGGGGS, VL. Only the CDRs of the light chain vary.
VH: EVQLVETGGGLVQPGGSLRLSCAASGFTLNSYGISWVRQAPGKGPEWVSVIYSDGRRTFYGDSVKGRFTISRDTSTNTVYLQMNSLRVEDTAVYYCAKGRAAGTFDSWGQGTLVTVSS
VL: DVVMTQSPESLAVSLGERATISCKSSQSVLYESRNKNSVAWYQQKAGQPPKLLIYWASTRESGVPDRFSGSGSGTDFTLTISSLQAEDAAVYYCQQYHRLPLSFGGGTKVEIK

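The starting antibody came from a phage panning campaign against this peptide. The variants were designed computationally from a first round of random CDR variants and then made and measured. Several design methods are mixed in this list. In AlphaSeq, yeast of one mating type display the scFv and yeast of the other type display the target. Mating (16 h, 30 °C) was followed by selection of diploids and sequencing of their barcodes. Read counts were normalised to the haploid input and turned into Kd by a linear fit to BCL2-family pairs of known affinity, for each replicate. There are six technical replicates.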

Each variant's VL is given in full.
The read-out is the apparent dissociation constant on a log10 scale (nM): the lower, the stronger.
A mean of the replicates is given; it leaves out those without a signal.
The list is sorted by this average, lowest first.
Three control strains display no target. For all light chain designs, 4% of the pairings with them gave a signal, with a median of 2.64 and one signal in twenty below 1.59, so weak values seen in few replicates may be background. Also given: how often the same scFv was detected with the empty control strains, with their mean in brackets.
In the paper, a design with two or fewer of six values counts as a poor binder.
Values of this round are not directly comparable with the first-round values of the same sequences.

VL | replicates, log10 nM | mean, log10 nM | empty controls
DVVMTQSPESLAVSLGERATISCKQSQSVLYESRNKNSVAWYQQKAGQPPKLLIYDASTRESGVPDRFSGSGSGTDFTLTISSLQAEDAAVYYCQQYSRLPLSFGGGTKVEIK | 0.04 / -0.39 / -0.20 / -0.26 / -0.30 / -0.48 | -0.26 | 1 of 18 (1.30)
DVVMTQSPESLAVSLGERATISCKLYQSHLYESRNKNSVAWYQQKAGQPPKLLIYEASTRESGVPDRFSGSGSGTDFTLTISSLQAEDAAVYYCQQYHRLPLSFGGGTKVEIK | 0.37 / 0.02 / 0.00 / -0.09 / -0.17 / 0.24 | 0.06 | 1 of 18 (2.31)
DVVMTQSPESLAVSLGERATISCKSSQSLLYESRNKNSVAWYQQKAGQPPKLLIYAASTRESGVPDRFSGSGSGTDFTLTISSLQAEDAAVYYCQQYHRLPLSFGGGTKVEIK | 0.08 / 0.91 / -0.25 / -0.09 / 0.01 / 0.47 | 0.19 | 0 of 18
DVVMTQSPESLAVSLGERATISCKSSQSVPMESRNANSVAWYQQKAGQPPKLLIYDASTRESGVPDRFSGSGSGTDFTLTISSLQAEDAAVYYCQQYHRLPLSFGGGTKVEIK | 0.51 / 0.58 / 0.43 / 0.27 / 0.40 / 0.46 | 0.44 | 0 of 18
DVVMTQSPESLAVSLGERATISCKSSQSVRYETMIKWSVAWYQQKAGQPPKLLIYAASTRESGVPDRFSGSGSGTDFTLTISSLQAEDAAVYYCQQYHRLPLSFGGGTKVEIK | 0.14 / 0.14 / 0.21 / 0.71 / 0.68 / 0.94 | 0.47 | 2 of 18 (2.64)
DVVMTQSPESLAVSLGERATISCRIQMGDLEGRTAWNNIAWYQQKAGQPPKLLIYNMEEIYRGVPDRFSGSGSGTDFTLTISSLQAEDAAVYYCQQYVRLPLYFGGGTKVEIK | 0.42 / 0.76 / 0.83 / 0.13 / 0.75 / 0.28 | 0.53 | 0 of 18
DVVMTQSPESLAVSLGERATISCKDSQSVLFQSRNKNSVAWYQQKAGQPPKLLIYDASTRESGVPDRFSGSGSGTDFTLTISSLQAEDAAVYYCQQYHRLPLSFGGGTKVEIK | 1.33 / 0.52 / 0.40 / 0.19 / 0.40 / 0.39 | 0.54 | 2 of 18 (1.87)

Continued, with the values leading:

replicates, log10 nM | mean, log10 nM | empty controls | VL
0.71 / 0.55 / 0.66 / 0.66 / 0.37 / 0.62 | 0.59 | 3 of 18 (2.98) | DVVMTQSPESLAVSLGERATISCKLSGIMRLEQKNKSNIAWYQQKAGQPPKLLIYEVNERSEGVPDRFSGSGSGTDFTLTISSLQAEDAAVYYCQQYDRLPLSFGGGTKVEIK
0.71 / 0.94 / 0.56 / 0.33 / 0.53 / 0.66 | 0.62 | 0 of 18 | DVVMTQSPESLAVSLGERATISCKSSQSFLYESRNKNSVAWYQQKAGQPPKLLIYDASTRESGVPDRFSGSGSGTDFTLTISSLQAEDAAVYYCQAYHRLPLSFGGGTKVEIK
0.95 / 0.92 / 0.84 / 0.93 / 1.20 / 1.12 | 0.99 | 4 of 18 (3.10) | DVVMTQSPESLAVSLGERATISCNMRLGEGEIAQHGYNIAWYQQKAGQPPKLLIYGVDLRAAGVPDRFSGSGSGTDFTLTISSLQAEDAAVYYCQQYARLPLHFGGGTKVEIK
1.29 / 0.93 / 0.95 / 1.12 / 1.70 / 1.42 | 1.24 | 1 of 18 (1.86) | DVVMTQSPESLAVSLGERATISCKLSQSVYYESRNKNSIAWYQQKAGQPPKLLIYWASTRESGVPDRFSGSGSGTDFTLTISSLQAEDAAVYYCQQYHRLPLSFGGGTKVEIK
1.59 / 1.87 / 1.09 / 1.66 / 1.13 / 1.28 | 1.44 | 0 of 18 | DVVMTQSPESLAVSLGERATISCKVSEISHFESKKKNSVAWYQQKAGQPPKLLIYENSTREEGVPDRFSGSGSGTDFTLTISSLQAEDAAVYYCQQYDHLPLSFGGGTKVEIK
1.94 / 1.54 / 2.25 / 2.00 / 1.70 / 1.74 | 1.86 | 0 of 18 | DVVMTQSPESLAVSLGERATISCKLGATYEGEKRQRNSVAWYQQKAGQPPKLLIYHNSMRENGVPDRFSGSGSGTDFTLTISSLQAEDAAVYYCQQYDRLPLEFGGGTKVEIK
1.43 / 2.05 / 2.35 / 1.81 / 2.60 / 2.70 | 2.16 | 2 of 18 (2.02) | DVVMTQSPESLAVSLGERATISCTLYGLSVSMAKNKNSVAWYQQKAGQPPKLLIYEMTTREKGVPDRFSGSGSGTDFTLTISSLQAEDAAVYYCQQYDRLPLIFGGGTKVEIK

Reference: Li et al. 2023, doi:10.1038/s41467-023-39022-2. File: FLAb, binding data.